Experimental data as given in US20080260838A1 (priority 2003, published 2008).

Assays:
[1] = 5-day oronasal inhalation toxicity and toxicokinetics in monkeys (Example 14); assay type: in vivo, cynomolgus monkey (Macaca fascicularis); conditions: FDKP only, 2.1 mg/kg/day (Group 2)
Description: Oronasal administration involved the monkeys wearing a mask over their mouth and nose and breathing the test formulation for 30 min.
Fourteen days prior to the start of treatment, the animals were acclimated to the restraint and dosing procedures. At the start of treatment (Day 1), male animals were between 30 months and 56 months old and ranged in weight from 2.3 to 4.0 kg; females were between 31 months and 64 months and ranged in weight from 1.6 to 3.4 kg. Ten (5 male and 5 female) non-naive cynomolgus monkeys were assigned to 5 groups (2 animals per group) as depicted in tables 5 and 6 below. The non-naive monkeys are colony animals who have previously received the formulations to be tested. However, these formulations have short half lives and are not expected to be present or have any effect on the monkeys during the dosing experiments disclosed herein.
Whole blood samples (1.4 mL/blood sample) were obtained on Day 5 at the following time points: Pre-dose, 10, 30, 45, 60, 90, 120 minutes and 4 hours post-dose. Blood was collected via venipuncture from the femoral vein. […] DPP-IV inhibitor (Millipore—Billerica, Mass.) was added (10 μL/mL of blood) to the tubes approximately 5-10 seconds after blood collection (yielding a concentration of DPP-IV of 100 μM). Tubes were inverted several times and immediately placed onto wet ice. […]

[2] = 28-day inhalation toxicity and toxicokinetics in monkeys (Example 16); assay type: in vivo, cynomolgus monkeys; conditions: for % Change in Mean Value ALT (U/L) / % Change in Mean Value AST (U/L) / % Change in Mean Value LDH (U/L): 3.67 mg/kg/day
Description: To assess the reversibility, persistence or delayed occurrence of any effects, there was a 4-week recovery period.
Forty-two cynomolgus monkeys were divided into 2 groups: main study (n=3/sex/group) and recovery (n=2/sex/group) in groups 1, 2, and 5. […] As is typically, in monkey studies only the high dose and controls were evaluated at recovery.
Animals were observed twice daily for mortality and morbidity and at least once daily, 30 minutes post-dose, for abnormalities and signs of toxicity. Body weight data was collected weekly and qualitative food consumption was assessed daily. Blood was collected for toxicokinetics on Days 1, 28, and 56. Three animals/sex/group were anesthetized, weighed, exsanguinated, and necropsied on Day 29. The remaining animals in Groups 1, 2 and 5 (n=2/sex/group) were anesthetized, weighed, exsanguinated, and necropsied on Day 57. At necropsy, selected organs were weighed and selected tissues were collected and preserved. All tissues from each animal were examined microscopically.

[3] = Effect of agitation and freeze-thaw cycles on GLP-1 (near-UV CD, far-UV CD, fluorescence); assay type: physicochemical; conditions: pH 4.0
Description: The samples were agitated for 30 and 90 min at room temperature and the fluorescence emission spectra were collected after tryptophan excitation at 280 nm. […] Fluorescence emission spectra were collected after tryptophan excitation at 280 nm.

[4] = 1 mg/mL, pH 10.5, 5 days at 40° C.

Substance | AUC∞ and Cmax of FDKP versus animals receiving GLP-1/FDKP at 2.13 mg/kg/day [1] | toxicity ([2]; FDKP up to 3.67 mg/kg/day, 28 days, up to 30 minutes a day) | % Change in Mean Value ALT (U/L) ([2]; females) [%] | % Change in Mean Value AST (U/L) ([2]; females) [%] | % Change in Mean Value LDH (U/L) ([2]; females) [%] | % Change in Mean Value ALT (U/L) ([2]; males) [%] | % Change in Mean Value AST (U/L) ([2]; males) [%] | % Change in Mean Value LDH (U/L) ([2]; males) [%] | effect of freeze-thaw cycles on tertiary structure ([3]; 10 cycles, 1.6, 5.1 and 8.4 mg/mL) | effect of freeze-thaw cycles on secondary structure ([3]; 11 cycles, 10 mg/mL) | precipitation at high ionic strength (1.0 mg/mL GLP-1, 1M NaCl, pH 4, 20° C., reversible on dilution with water) | pH range of reversible precipitation (peptide concentration 10 mg/ml, 20° C.) | deamidation [4]
3,6-di(fumaryl-4 aminobutyl)-2,5-diketopiperazine [FDKP] | of the same order of magnitude | not associated with any toxicity | −13 | −34 | −53 | 14 | 60 | −6 |  |  |  |  | 
GLP-1 |  |  |  |  |  |  |  |  | tertiary structure of the peptide does not notably change | secondary structure of the peptide does not change significantly | much of the peptide (at 1.0 mg/mL) precipitates out of solution | 6.3-7.6 | deamidation of GLP-1 was not observed
